By UniProt entry, the sequences of proteins in these tests, tags left out. Where a name states a change or a piece, a line headed by the entry shows the natural chain unless it says otherwise.
UniProt P43116: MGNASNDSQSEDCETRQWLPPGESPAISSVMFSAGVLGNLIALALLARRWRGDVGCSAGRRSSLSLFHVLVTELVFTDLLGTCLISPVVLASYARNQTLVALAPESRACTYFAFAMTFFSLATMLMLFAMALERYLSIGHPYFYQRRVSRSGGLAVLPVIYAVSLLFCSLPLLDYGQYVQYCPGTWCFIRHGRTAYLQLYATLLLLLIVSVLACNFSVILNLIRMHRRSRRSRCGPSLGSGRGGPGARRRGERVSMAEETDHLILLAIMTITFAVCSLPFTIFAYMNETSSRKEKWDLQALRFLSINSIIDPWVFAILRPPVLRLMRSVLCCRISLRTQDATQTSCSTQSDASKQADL

According to ChEMBL document CHEMBL3286161, “Prostanoid receptor EP2 as a therapeutic target” (J Med Chem, 2014):

Key:
[1] = Half life in mouse plasma
in vivo = conditions: mouse, brain
[2] = target: T1, Prostaglandin E2 receptor EP2 subtype (Homo sapiens, UniProt P43116); experiment: Agonist activity at EP2 receptor (unknown origin) by functional assay
[3] = target: T1, Prostaglandin E2 receptor EP2 subtype; experiment: Binding affinity to EP2 receptor (unknown origin) by competitive binding assay

EC50 [2] [µM]	Ki [3] [µM]	Compound	half-life [1] [h]	Kp (in vivo)
		COc1cc(/C=C/C(=O)NCCn2c(C(F)(F)F)cc3ccccc32)cc(OC)c1OC	1.6	1.6
0.0021	0.038	CCCCC[C@H](O)/C=C/[C@H]1[C@H](O)CC(=O)[C@@H]1C/C=C\CCCC(=O)O [DINOPROSTONE]		
